Conditions: 20 mg/day oral; 70 kg, heavy smoker; hypothetical case ('Consider ...')

Cc1cc2c(s1)Nc1ccccc1N=C2N1CCN(C)CC1 [olanzapine]
sustained maximum plasma drug concentration: 65 ng/mL

Source: US20160335412A1, “SYSTEMS AND METHODS FOR PREDICTING AND ADJUSTING THE DOSAGE OF MEDICINES IN INDIVIDUAL PATIENTS” (priority 2013, published 2016)
